Results reported in ChEMBL document CHEMBL3352054, “Discovery of new 7-substituted-4-imidazolylmethyl coumarins and 4'-substituted-2-imidazolyl acetophenones open analogues as potent and selective inhibitors of steroid-11β-hydroxylase” (Eur J Med Chem, 2015).

Target: T1, Cytochrome P450 11B2, mitochondrial (Homo sapiens, UniProt P19099)
T1 sequence (P19099 whole entry): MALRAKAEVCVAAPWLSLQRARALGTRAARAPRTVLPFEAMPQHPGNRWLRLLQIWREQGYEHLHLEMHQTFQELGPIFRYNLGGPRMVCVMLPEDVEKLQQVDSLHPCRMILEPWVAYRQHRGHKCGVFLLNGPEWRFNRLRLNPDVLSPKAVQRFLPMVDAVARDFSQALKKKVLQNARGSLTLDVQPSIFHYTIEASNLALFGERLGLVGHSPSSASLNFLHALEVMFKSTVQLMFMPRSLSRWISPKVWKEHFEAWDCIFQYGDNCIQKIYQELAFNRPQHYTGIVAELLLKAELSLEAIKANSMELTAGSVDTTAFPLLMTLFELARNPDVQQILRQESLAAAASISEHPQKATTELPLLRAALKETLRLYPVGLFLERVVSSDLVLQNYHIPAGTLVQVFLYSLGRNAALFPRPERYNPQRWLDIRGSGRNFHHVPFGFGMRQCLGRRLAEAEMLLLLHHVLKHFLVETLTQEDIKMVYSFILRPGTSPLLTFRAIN
Test: Inhibition of human CYP11B2 expressed in hamster V79MZh11B2 cells using [1,2-3H]-11-deoxycorticosterone substrate incubated for 45 mins by HPLC method

SMILES: CC(C)(C(=O)c1cccnc1)c1cccnc1 [METYRAPONE]
- IC50: 72 nM
